This experiment addresses T1, mouse LRRC15, expressed on murine Balb/c BM-MSC cells (mouse, UniProt Q80X72 22-579).
T1 construct: whole, on cells; also called muLRRC15
In words: flow cytometry histograms on murine Balb/c BM-MSC (Cyagen), without or with TGFbeta, AF647-labeled antibody. Background: Flow cytometry measures light scatter and fluorescence of single cells or particles in a stream.

B1: huM25 (antibody, human IgG1, kappa)
heavy: not shown
light: DIQMTQSPSSLSASVGDRVTITCRASQDISNYLNWYQQKPGGAVKFLIYYTSRLHSGVPSRFSGSGSGTDYTLTISSLQPEDFATYFCQQGEALPWTFGGGTKVEIKRTVAAPSVFIFPPSDEQLKSGTASVVCLLNNFYPREAKVQWKVDNALQSGNSQESVTEQDSKDSTYSLSSTLTLSKADYEKHKVYACEVTHQGLSSPVTKSFNRGEC
notes: Humanized IgG1 kappa; also called AF647-labeled huM25; huM25-AF647
Consider B1, for which the binding result was “binds”.

Values taken from patent US20170151343A1 (AbbVie / Abbott, published 2017).
